# How the values were obtained:
# [1] = biological target: T1, MBLAC2 (Homo sapiens, UniProt Q68D91); test: chemoproteomic competition assay (MV4-11/SW620 lysate, iA/iC/iQ beads, MS readout); type: binding
# T1 construct: incubated at increasing concentrations with a mixture of lysates of MV4–11 and SW620 cells; endogenous in cells; host or cells: mixed lysate of MV4-11 and SW620 cells
# T1 sequence (Q68D91 1-279): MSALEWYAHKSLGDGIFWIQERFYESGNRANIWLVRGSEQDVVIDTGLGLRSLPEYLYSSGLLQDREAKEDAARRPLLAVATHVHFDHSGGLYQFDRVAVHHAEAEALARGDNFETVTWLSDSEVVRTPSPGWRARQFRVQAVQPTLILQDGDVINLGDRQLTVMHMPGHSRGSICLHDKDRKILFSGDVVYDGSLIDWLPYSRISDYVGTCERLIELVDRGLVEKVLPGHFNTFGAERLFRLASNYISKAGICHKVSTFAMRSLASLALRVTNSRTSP
# Method: (§1) MBLAC2 is a metalloenzyme predicted to harbor one or two Zn^2+ ions in its active site. […] In this assay, compounds of interest are incubated at increasing concentrations with a mixture of lysates of MV4–11 and SW620 cells. The compound-treated lysates are then mixed with bead-immobilized hydroxamic acid-containing compounds iA, iC, and iQ (immobilized Quisinostat), which pull down compound-binding proteins such as HDACs, MBLAC2, ISOC1/2, ALDH2, and GATD3A (Figure a) that can be identified and quantified by mass spectrometry (MS). Proteins targeted by the library compounds in a preincubation step are prevented from being pulled down by the immobilized probes, leading to a dose-dependent reduction in MS signal. Initially, 12 metal-chelating compounds were profiled at two concentrations (10 μM and 100 μM) (Figure S3).
# (§2) Chemoproteomic competition assays
# (§3) Sample preparation. […]
# (§4) LC-MS/MS. The different sample types were measured with different LC-MS/MS settings. MBLAC2 2-dose competition assays were measured with the Lumos1 setup, MBLAC2 9-dose competition assays were measured with the Lumos2 setup, and kinobeads assays were measured with the Eclipse setup.
# (§5) Peptides were analyzed via LC–MS/MS on a Dionex Ultimate3000 nano HPLC coupled to either one of two Orbitrap Fusion Lumos mass spectrometers, or to an Orbitrap Eclipse mass spectrometer, operated via the Thermo Scientific Xcalibur software. […]
# [2] = biological target: T2, HDAC6 (Homo sapiens, UniProt Q9UBN7); test: as above; type: binding
# T2 construct: incubated at increasing concentrations with a mixture of lysates of MV4–11 and SW620 cells; endogenous in cells; host or cells: mixed lysate of MV4-11 and SW620 cells
# T2 sequence (Q9UBN7 1-1215): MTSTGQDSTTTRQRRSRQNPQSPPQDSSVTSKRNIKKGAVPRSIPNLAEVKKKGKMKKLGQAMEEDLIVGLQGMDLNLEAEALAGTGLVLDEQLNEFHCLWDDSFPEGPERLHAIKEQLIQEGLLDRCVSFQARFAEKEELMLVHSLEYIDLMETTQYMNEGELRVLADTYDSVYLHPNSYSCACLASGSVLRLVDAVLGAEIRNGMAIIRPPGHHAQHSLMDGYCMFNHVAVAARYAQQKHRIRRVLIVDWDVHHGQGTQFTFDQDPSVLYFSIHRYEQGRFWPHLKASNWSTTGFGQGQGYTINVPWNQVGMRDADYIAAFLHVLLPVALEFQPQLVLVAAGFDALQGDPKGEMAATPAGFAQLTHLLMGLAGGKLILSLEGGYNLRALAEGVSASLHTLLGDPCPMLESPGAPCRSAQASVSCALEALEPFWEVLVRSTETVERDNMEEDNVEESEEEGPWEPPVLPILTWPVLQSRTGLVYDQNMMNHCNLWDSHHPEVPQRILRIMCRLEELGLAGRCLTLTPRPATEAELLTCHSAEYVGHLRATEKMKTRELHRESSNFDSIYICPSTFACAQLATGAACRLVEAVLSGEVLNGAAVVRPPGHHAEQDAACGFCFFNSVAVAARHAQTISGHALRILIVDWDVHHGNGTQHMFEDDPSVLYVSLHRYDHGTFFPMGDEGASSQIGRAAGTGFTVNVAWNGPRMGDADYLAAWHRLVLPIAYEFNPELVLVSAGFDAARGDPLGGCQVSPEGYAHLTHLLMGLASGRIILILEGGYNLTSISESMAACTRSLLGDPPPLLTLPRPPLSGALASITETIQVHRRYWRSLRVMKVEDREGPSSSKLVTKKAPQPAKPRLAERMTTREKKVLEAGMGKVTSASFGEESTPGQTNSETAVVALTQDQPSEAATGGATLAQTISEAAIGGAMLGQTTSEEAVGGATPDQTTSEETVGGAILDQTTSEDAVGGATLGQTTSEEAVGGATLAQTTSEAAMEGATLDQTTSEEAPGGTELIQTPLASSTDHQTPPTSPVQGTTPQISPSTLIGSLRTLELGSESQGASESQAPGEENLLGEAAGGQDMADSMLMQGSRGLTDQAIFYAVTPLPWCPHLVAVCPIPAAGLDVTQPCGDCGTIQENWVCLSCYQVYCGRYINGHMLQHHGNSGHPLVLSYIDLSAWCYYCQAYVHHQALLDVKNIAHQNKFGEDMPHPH
# Method: as §1, with “Initially, 12 metal-chelating compounds were profiled at two concentrations (10 μM and 100 μM) (Figure S3).” left out
# as §2, §3, §4, §5
smiles,measurement,setting,value
O=C(NO)c1ccc(CN2c3ccccc3S(=O)(=O)c3ccccc32)cc1 [KV-65],selectivity compared to HDACs,[1]; abstract,over 60 fold
same,selectivity over HDAC6 (EC50 HDAC6/EC50 MBLAC2),[1]; from EC50 values,64 fold
same,EC50,[2],2400 nM

# Source: PMC12186257, “Serendipitous and Systematic Chemoproteomic Discovery of MBLAC2, HINT1, and NME1‑4 Inhibitors from Histone Deacetylase-Targeting Pharmacophores” (ACS Chemical Biology, 2025)
